Columns and labels:
[1] = molecular target: T1, UGT1A8 (Homo sapiens, UniProt Q9HAW9); assay: Inhibition of recombinant UGT1A8 activity (4-MU glucuronidation); conditions: read-out: IC50 for inhibition of UGT1A8 activity; recombinant human UGT1A8, 750 μM 4-MU, mean ± SD
T1 sequence (Q9HAW9 26-530): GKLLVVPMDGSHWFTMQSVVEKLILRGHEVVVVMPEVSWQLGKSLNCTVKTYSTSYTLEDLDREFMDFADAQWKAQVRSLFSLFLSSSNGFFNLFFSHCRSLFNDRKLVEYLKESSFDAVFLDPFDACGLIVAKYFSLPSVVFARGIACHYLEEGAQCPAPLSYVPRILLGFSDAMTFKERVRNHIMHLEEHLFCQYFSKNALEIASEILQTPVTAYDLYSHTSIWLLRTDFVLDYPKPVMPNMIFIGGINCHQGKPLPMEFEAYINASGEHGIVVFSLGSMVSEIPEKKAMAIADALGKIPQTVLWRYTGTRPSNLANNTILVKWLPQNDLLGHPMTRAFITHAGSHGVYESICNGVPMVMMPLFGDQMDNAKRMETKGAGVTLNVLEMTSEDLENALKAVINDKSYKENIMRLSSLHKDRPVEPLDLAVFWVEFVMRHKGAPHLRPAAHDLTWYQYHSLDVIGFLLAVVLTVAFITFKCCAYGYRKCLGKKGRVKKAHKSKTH
Protocol: (§1) A panel of recombinant human UGT supersomes (UGT1A1, UGT1A3, UGT1A4, UGT1A6, UGT1A7, UGT1A8, UGT1A9, UGT1A10, UGT2B4, UGT2B7, UGT2B15, and UGT2B17) expressed in baculovirus-infected insect cells were purchased from BD Gentest Corp. (Woburn, MA, USA).
(§2) 4-MU, a nonselective substrate of UGTs, was used as probe substrate for all UGTs except UGT1A4. Incubations with each individual enzyme were conducted using conditions previously described. There was a 5 min preincubation step at 37°C before the reaction was started by addition of UDPGA. The incubation mixtures were then centrifuged at 20,500 ×g for 15 min to obtain the supernatant. Aliquots (20 μL) were then analyzed by HPLC. The HPLC system (SHIMADZU, Kyoto, Japan) consisted of an SCL-10A system controller, two LC-10AT pumps, a SIL-10A auto injector, and a SPD-10AVP UV detector. Chromatographic separation was achieved using a Kromasil ODS column (4.6 × 150 mm I.D., 5 μm particle size) at a flow rate of 1 mL/min and UV detection at 316 nm. The mobile phase consisted of 10 mM KH2PO4, pH 2.7 (A) and acetonitrile (B). […]
(§3) Inhibition data from experiments were graphically represented by Dixon plots. K i values were calculated by nonlinear regression using the equations for competitive inhibition (1), noncompetitive inhibition (2), or mixed inhibition (3), [22] […]

[2] = molecular target: T2, UGT2B15 (Homo sapiens, UniProt P54855); assay: Inhibition of recombinant UGT2B15 activity (4-MU glucuronidation); conditions: read-out: IC50 for inhibition of UGT2B15 activity; recombinant human UGT2B15, 250 μM 4-MU, mean ± SD
T2 sequence (P54855 24-530): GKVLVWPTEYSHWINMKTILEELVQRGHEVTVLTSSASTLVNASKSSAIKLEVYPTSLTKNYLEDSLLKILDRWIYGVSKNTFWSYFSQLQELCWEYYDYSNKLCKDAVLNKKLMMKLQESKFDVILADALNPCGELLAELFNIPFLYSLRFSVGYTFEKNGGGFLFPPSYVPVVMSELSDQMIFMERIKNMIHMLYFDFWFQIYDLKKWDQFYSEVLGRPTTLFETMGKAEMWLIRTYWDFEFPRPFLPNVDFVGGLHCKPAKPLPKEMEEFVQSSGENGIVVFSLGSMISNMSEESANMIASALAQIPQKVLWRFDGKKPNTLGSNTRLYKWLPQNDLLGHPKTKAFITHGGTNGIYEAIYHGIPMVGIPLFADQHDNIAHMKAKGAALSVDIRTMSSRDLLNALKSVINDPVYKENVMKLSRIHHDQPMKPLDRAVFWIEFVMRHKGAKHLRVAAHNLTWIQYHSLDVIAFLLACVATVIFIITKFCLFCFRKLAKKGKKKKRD
Protocol: as §1, §2, §3

[3] = Calculation of possible maximum concentrations in gut lumen; parameters: species or system human; conditions: calculated, after a single oral administration of Epimedium pubescens decoction
Protocol: Since the concentrations of icariin in human gut lumen are not available, the values were calculated based on physiological parameters of human and the dosage of a single oral administration of a Chinese traditional decoction of Epimedium pubescens in human volunteers. […] The reported V L was 1.65 L/70 kg. […] The concentrations of icariin intestinal metabolites in human gut lumen are not available, but it has been reported that about 70% icariin will be transformed into its intestinal metabolites in the intestinal lumen. […] Here we arbitrarily assumed the ratio in rat equaled to that in human blood, and the values of their oral bioavailability were consistent.

For Icariside II, the IC50 [1] was over 100 µM, the IC50 [2] was over 100 µM and the “Possible maximum concentration in human gut lumen” value [3] was about 3.7 µM.

— article PMC3479967, “Drug-Drug Interactions Potential of Icariin and Its Intestinal Metabolites via Inhibition of Intestinal UDP-Glucuronosyltransferases” (Evidence-based Complementary and Alternative Medicine : eCAM, 2012)
